# Assay results taken from PubChem BioAssay AID720709 (National Center for Advancing Translational Sciences (NCATS), 2013).
# Sequences of proteins named here, by UniProt entry; tags and fusion partners are left off.
# UniProt O95398, whole entry: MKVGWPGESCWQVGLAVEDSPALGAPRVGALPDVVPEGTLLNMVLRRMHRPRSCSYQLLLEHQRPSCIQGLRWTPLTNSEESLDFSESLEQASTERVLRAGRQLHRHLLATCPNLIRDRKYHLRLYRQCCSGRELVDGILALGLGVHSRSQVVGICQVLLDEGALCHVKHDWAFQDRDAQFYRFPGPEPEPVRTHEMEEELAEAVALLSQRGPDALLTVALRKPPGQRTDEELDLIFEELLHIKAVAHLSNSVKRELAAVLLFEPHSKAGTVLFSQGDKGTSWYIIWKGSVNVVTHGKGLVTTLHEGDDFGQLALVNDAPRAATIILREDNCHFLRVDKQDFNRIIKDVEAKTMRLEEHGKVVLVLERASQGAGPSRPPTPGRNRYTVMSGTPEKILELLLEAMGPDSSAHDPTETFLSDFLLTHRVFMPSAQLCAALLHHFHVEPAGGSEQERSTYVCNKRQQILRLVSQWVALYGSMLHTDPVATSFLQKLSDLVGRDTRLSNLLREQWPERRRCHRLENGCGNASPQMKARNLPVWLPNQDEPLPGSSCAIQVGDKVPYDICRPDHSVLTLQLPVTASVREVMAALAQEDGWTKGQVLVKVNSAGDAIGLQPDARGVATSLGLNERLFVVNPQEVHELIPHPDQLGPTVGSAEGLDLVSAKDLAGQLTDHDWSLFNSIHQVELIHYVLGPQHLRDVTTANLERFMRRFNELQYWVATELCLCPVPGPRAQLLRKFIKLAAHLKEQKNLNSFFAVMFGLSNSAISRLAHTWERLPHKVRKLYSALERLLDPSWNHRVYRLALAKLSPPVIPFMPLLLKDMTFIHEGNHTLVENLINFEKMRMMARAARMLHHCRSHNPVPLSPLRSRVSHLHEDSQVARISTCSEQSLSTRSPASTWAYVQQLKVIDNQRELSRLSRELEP
# The list shows a part of the results, in another mix than the full data. Results filed as inconclusive are left out. Active and inactive are the calls of the source. Calls follow the shape of the dose curve; as a rule, active = well fitted inhibition curve with a large enough effect; inconclusive = small, poorly fitted or top-dose-only effect; inactive = no such curve, though single readings can be large or run the other way.
# Target: Rap guanine nucleotide exchange factor 3 (Homo sapiens) (UniProt O95398)
# Experiment: qHTS for Antagonist of cAMP-regulated guanine nucleotide exchange factor 3 (EPAC1): primary screen;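 also: plate controls were vehicle for no effect and positive control for full effect; nearly all actives have a fitted effect of over 50% in size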
# Conditions: EPAC1 GEF assay, Rap1b-BODIPY-GDP exchange fluorescence; at 115 µM (top of the series)
# From the text: In multi-cellular eukaryotic organisms, the effects of cAMP are transduced by two ubiquitously-expressed intracellular cAMP receptors, the classic protein kinase A/cAMP-dependent protein kinase (PKA/cAPK) and the more recently discovered exchange protein directly activated by cAMP/cAMP-regulated guanine nucleotide exchange factor (EPAC/cAMP-GEF). Both PKA and EPAC are ubiquitously expressed in all tissues, and an increase in intracellular cAMP levels will lead to the activation of both PKA and EPAC. […] This qHTS will be used to screen the Molecular Libraries Small Molecule Repository (MLSMR) as a concentration-titration series using the NCGC unique quantitative screening (qHTS) platform to find inhibitors for EPAC1. […] Inhibitors are identified by monitoring the change in fluorescence signal as the exchanged free BODIPY-GDP has a reduced fluorescence compared to Rap1-bound BODIPY-GDP. […]
# Briefly, three uL of reagents (100 nM EPAC1, 250 nM RAP1B-BODIPY-GDP, 50 uM GDP) were dispensed into a 1536-well Greiner black solid-bottom medium binding assay plate. […] The assay plates were read at 5 minute intervals for 30 minutes in the ViewLux plate reader using 480nm excitation and 540nm emission filters. […]
row,SMILES,"activity change, negative = inhibition"
1,Cc1cc(C)cc(OP(C)(=O)Nc2ccccn2)c1 (stereo unspecified),inactive: 5.01%
